From ChEMBL document CHEMBL1144680, “Structure-guided design of aminopyrimidine amides as potent, selective inhibitors of lymphocyte specific kinase: synthesis, structure-activity relationships, and inhibition of in vivo T cell activation” (J Med Chem, 2008)

Test: Selectivity for Lck over KDR

Cc1ccc(NC(=O)c2ccc3c(c2)OC(F)(F)O3)cc1C(=O)Nc1cnc(Nc2ccc(N3CCN(C)CC3)cc2)nc1 showed a Ratio IC50 of over 200.
